What was measured:
Format in all cases: tissue-based
[1] = molecular target: Norepinephrine transporter (Rattus norvegicus, UniProt Q9WTR4); assay: Inhibition of NET-mediated [3H]NE uptake in rat cerebral cortex
Method in brief: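 [3H]DA, [3H]5-HT or [3H]NE accumulation measured; SERT and NET uptake in rat cerebral cortex. Nonspecific uptake defined with cocaine (DAT), citalopram (SERT) or desipramine (NET). […] Three to eight independent experiments in triplicate, mean ± SEM.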

Sequences of proteins named here, by UniProt entry; tags and fusion partners are left off.
UniProt Q9WTR4, whole entry: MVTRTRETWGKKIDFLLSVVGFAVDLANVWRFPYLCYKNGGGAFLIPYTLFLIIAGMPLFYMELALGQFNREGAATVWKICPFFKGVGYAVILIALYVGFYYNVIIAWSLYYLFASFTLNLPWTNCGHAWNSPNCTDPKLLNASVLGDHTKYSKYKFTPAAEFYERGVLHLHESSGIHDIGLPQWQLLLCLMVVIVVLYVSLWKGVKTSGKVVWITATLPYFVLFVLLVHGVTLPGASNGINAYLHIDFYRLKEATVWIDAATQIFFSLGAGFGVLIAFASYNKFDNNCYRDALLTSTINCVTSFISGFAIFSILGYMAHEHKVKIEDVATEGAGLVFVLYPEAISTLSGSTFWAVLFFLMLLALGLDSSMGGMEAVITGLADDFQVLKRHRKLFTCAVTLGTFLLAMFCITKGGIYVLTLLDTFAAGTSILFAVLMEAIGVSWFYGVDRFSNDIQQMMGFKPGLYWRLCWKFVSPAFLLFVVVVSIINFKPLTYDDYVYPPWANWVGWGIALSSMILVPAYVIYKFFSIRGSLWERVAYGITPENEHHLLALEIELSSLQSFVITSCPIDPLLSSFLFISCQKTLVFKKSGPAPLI
UniProt P31652, whole entry: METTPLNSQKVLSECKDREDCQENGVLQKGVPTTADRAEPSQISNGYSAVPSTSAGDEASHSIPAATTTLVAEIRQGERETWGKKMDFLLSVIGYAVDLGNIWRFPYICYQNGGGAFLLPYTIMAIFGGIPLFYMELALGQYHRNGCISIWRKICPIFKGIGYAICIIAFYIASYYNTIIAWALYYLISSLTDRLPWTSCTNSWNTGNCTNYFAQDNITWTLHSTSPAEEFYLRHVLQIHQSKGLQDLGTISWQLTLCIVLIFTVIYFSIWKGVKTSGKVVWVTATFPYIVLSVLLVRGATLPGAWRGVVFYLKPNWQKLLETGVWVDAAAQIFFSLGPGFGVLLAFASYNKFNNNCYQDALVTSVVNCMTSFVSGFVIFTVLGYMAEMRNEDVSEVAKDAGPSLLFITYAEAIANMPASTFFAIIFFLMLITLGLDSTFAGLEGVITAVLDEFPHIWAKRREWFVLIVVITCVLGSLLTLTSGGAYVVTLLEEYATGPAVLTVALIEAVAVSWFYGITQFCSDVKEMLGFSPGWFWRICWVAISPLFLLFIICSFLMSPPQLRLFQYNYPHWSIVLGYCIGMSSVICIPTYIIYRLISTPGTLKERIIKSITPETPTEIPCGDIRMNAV
UniProt P23977, whole entry: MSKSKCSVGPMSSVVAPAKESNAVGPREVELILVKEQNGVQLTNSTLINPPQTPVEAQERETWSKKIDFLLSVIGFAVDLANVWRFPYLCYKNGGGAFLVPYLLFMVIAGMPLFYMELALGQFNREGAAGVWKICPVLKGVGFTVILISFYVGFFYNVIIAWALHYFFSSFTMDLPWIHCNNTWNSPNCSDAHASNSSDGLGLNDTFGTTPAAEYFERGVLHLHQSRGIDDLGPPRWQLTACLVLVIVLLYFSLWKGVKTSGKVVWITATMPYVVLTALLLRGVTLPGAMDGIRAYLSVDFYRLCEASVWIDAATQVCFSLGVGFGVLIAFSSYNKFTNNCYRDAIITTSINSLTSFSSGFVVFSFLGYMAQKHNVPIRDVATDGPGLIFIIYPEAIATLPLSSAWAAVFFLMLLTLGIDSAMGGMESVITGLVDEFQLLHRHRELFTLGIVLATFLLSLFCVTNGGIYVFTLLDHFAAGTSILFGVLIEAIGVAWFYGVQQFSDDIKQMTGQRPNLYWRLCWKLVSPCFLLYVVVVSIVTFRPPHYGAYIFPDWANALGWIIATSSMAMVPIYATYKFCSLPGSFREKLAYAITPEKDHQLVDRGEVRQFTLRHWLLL

[2] = molecular target: Sodium-dependent serotonin transporter (Rattus norvegicus, UniProt P31652); assay: Inhibition of SERT-mediated [3H]5-HT uptake in rat cerebral cortex
Method in brief: (§1)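 [3H]DA, [3H]5-HT or [3H]NE accumulation measured; SERT and NET uptake in rat cerebral cortex. Nonspecific uptake defined with cocaine (DAT), citalopram (SERT) or desipramine (NET). Three to eight independent experiments in triplicate, mean ± SEM.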

[3] = molecular target: T1, Sodium-dependent dopamine transporter (Rattus norvegicus, UniProt P23977); assay: Inhibition of [3H]WIN-35428 binding to rat striatum DAT
Method in brief: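 DAT radioligand binding with nonspecific binding defined by cocaine. Compounds dissolved in DMSO, diluted in 10% (v/v) DMSO, final 0.5% DMSO. At least five concentrations, each in triplicate, spaced evenly around the IC50.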

[4] = molecular target: T1, Sodium-dependent dopamine transporter; assay: Inhibition of DAT-mediated [3H]DA uptake in rat striatum; method in brief: as §1

Row | SMILES | Ki [1] [nM] | Ki [2] [nM] | Ki [3] [nM] | Ki [4] [nM]
1 | O=[N+]([O-])c1ccc(CN[C@@H]2CC[C@H](C(c3ccccc3)c3ccccc3)OC2)cc1 | 81.6 | 64.6 |  | 
2 | O[C@@H]1C[C@@H](C(c2ccccc2)c2ccccc2)OC[C@H]1NCc1ccc2[nH]ccc2c1 |  | 15.3 |  | 
3 | Nc1ccc(CN[C@@H]2CC[C@H](C(c3ccccc3)c3ccccc3)OC2)cc1 | 25.6 | 45.7 | 118 | 43.9
4 | O=[N+]([O-])c1ccc(CN[C@H]2CC[C@@H](C(c3ccccc3)c3ccccc3)OC2)cc1 | 54.3 | 19.9 |  | 
5 | Oc1ccc(CN[C@@H]2CO[C@H](C(c3ccccc3)c3ccccc3)C[C@H]2O)cc1 |  | 237 | 234 | 172
6 | Nc1ccc(CN[C@H]2CC[C@@H](C(c3ccccc3)c3ccccc3)OC2)cc1 | 12.6 | 16.1 | 142 | 62.4
7 | Oc1ccc(CN[C@H]2CO[C@@H](C(c3ccccc3)c3ccccc3)C[C@@H]2O)cc1 |  | 2540 | 125 | 91.5
8 | O[C@H]1C[C@H](C(c2ccccc2)c2ccccc2)OC[C@@H]1NCc1ccc2[nH]ccc2c1 |  | 223 |  | 

Now from value to molecule, other results behind:

Row | Ki [1] [nM] | Ki [2] [nM] | Ki [3] [nM] | SMILES | Ki [4] [nM]
9 | 40.9 |  |  | Oc1ccc(CN[C@@H]2CC[C@H](C(c3ccccc3)c3ccccc3)OC2)cc1 | 
10 | 5.09 |  |  | Oc1ccc(CN[C@H]2CC[C@@H](C(c3ccccc3)c3ccccc3)OC2)cc1 | 
11 |  |  | 183 | COc1ccc(CN[C@@H]2CO[C@H](C(c3ccccc3)c3ccccc3)C[C@H]2O)cc1 | 
